Experimental data as given in paper PMC10189885, “Transcription activation by the resistance protein AlbA as a tool to evaluate derivatives of the antibiotic albicidin” (Chemical Science, 2023).

Legend:
AlbA = AlbA (Klebsiella oxytoca, UniProt Q8KRS7); assay: Bioluminescence transcription activation (reporter) assay, pCS-pAlbA-ilux + pET15b-ΔHisAlbA in E. coli BL21(DE3); format: cell-based; details: monitored over 12 hours; both plasmids present
Description: Having established the operator sequence that is recognized by AlbA, we introduced the 41-bp-long fragment (Fig. 2B) into a reporter vector that encodes the ilux[46] luminescence cassette (pCS-pAlbA-ilux; Fig. S2A and B ^†). To create a system similar to the albA operon in K. oxytoca, the distance between the −10 region and the ribosome binding site was kept intact (16 bp). The ilux cassette includes the optimized bacterial luciferase genes luxCDABE from Photorhabdus luminescens as well as an additional FMN reductase to recycle FMNH2 faster.[46] FMNH2 is oxidized by the luciferase together with an aliphatic aldehyde that is oxidized to a carboxylic acid, which results in the emission of blue-green light (λmax = ∼490 nm). In our reporter system, the addition of albicidin to E. coli cells that contain the reporter plasmid and express albA should activate AlbA to bend the DNA so that transcription is initiated at the pAlbA promoter, leading to production of the ilux proteins and thus light emission. […]
proteins was assessed on SDS-PAGE (Figure S7). […]
Concentrations were determined with a nano-photometer P330 (Implen, Munich, Germany) spectrophotometer using extinction coefficients calculated with the ProtParam tool7 before storage at -80 °C. […]

E. coli DSM 1116 = assay: E. coli growth inhibition assay in presence and absence of AlbA; format: cell-based; details: 20 h; for E. coli growth inhibition by derivative preincubated with AlbA (evasion of capture): 10 µM compound + 10 µM AlbA (equimolar), 37 °C; for antibacterial activity of derivative alone in growth inhibition assay: 10 µM compound without AlbA
Method: (§1) E. coli growth inhibition assay
(§2) liquid culture were conducted.
(§3) All assays were set up in triplicates.
(§4) scanner (Epson) with argusX.
(§5) overnight at 37 °C, 200 rpm shaking.
(§6) 95 μL of the inoculum were applied
(§7) Previously, the dry antibiotic compounds were
(§8) The antimicrobial effect of the solvent
(§9) Both microdilution trays and agar plates
(§10) DNA-Gyrase inhibition testing
(§11) The final DMSO concentration was 3%.
(§12) AlbA and its mutants were diluted in […]

E. coli BW25113 = assay: MIC determination (microdilution); format: cell-based; details: Escherichia coli, BW25113, 20 h, read-out: MIC E. coli BW25113
Method: as §1, §2, §3, §4, §5, §6, §7, §8, §9, §10, §11, §12

E. coli DSM1116 = assay: MIC determination (microdilution); format: cell-based; details: Escherichia coli, DSM1116, 20 h, read-out: MIC E. coli DSM1116
Method: as §1, §2, §3, §4, §5, §6, §7, §8, §9, §10, §11, §12

M. luteus DSM1790 = assay: MIC determination (microdilution); format: cell-based; details: Micrococcus luteus, DSM1790, 20 h, read-out: MIC M. Luteus DSM1790
E. coli gyrase = biological target: T1, E. coli gyrase (Escherichia coli, UniProt P0AES4+P0AES6); format: biochemical; set-up: key: 0, equal to the activity of albicidin; -, lower than the activity of albicidin; +, higher than the activity of albicidin; details: 45 nM compound, relative to albicidin, 37 °C, 30 min
T1 construct: purchased Inspiralis Limited, Norwich, UK

Compound | E. coli growth inhibition by derivative preincubated with AlbA (evasion of capture) (E. coli DSM 1116) | antibacterial activity of derivative alone in growth inhibition assay (E. coli DSM 1116) | further results
COc1c(NC(=O)c2ccc(NC(=O)c3ccc(NC(=O)[C@H](CC#N)NC(=O)c4ccc(NC(=O)/C(C)=C/c5ccc(O)cc5)cc4)cc3)c(OC)c2O)ccc(C(=O)O)c1O [Compound 1, albicidin] |  |  | light emission (luminescence) after addition of compound (AlbA): observed light emission
COc1c(NC(=O)c2ccc(NC(=O)c3ccc(NC(=O)[C@H](Cc4c[nH]nn4)NC(=O)c4ccc(C#Cc5ccc(C#N)cc5)cc4)cn3)c(OC)c2O)ccc(C(=O)O)c1O [Compound 10] | evaded capture by AlbA sufficiently to inhibit E. coli growth, albeit not completely |  | 
CC(C)Oc1c(NC(=O)c2ccc(NC(=O)[C@H](Cc3c[nH]nn3)NC(=O)c3ccc(NC(=O)c4ccc(C#N)cc4)cn3)cn2)ccc(C(=O)Nc2ccc(C(=O)O)cc2)c1O [Compound 11] | evaded capture by AlbA sufficiently to inhibit E. coli growth, albeit not completely |  | MIC (E. coli BW25113): ≤ 0.016 µg/mL; MIC (E. coli DSM1116): ≤ 0.016 µg/mL; MIC (M. luteus DSM1790): ≤ 0.016 µg/mL; gyrase inhibition (E. coli gyrase): +
COc1c(NC(=O)c2ccc(-n3cc(-c4ccc(NC(=O)[C@H](CC#N)NC(=O)c5ccc(NC(=O)/C(C)=C/c6ccc(O)cc6)cc5)cc4)nn3)c(OC)c2O)ccc(C(=O)O)c1O [Compound 12] | did not perform as well in growth inhibition assays | low antibacterial activity | 
COc1c(NC(=O)c2ccc(NC(=O)c3ccc(NC(=O)[C@H](Cc4cnn[nH]4)NC(=O)c4ccc(NC(=O)c5ccc6cc(O)ccc6c5)cc4)cn3)c(OCCN)c2O)ccc(C(=O)O)c1O [Compound 13] | did not perform as well in growth inhibition assays | low antibacterial activity | 
guanidino-albicidin [Compound 20] | did not perform as well in growth inhibition assays | low antibacterial activity | 
